What all share (assay type): cell-based
Experiment [1] deals with T1, Protein cereblon/Signal transducer and activator of transcription 3 (Homo sapiens, UniProt P40763+Q96SW2). Briefly: Protac activity at CRBN/STAT3 in human BxPC-3 cells assessed as effect on GSPT1 protein expression level at 2 uM incubated for 16 hrs by western blot analysis. On the technique in general: Immunoblotting shows a protein as a band on a membrane.
For experiment [2], the target named is T1, Protein cereblon/Signal transducer and activator of transcription 3. Briefly: Protac activity at CRBN/STAT3 in human MIA PaCa-2 cells assessed as effect on STAT3 expression levels at 1 uM incubated for 16 hrs by western blot analysis.
Experiment [3] deals with Signal transducer and activator of transcription 3 (Homo sapiens) (UniProt P40763). Briefly: Inhibition of STAT3 phosphorylation in human MIA PaCa-2 cells 1 uM after 16 hrs by western blot analysis.
Experiment [4] has the same target. Briefly: Inhibition of STAT3 in human BxPC-3 cells assessed as thermal stability by measuring shift in melting temperature at 100 uM measured after 1 hr by cellular thermal shift assay.

Amino acid sequences for entries named in this document (tags omitted). A change or cut given only in a name is not applied to a line headed by its entry.
UniProt P40763, whole entry, looked up: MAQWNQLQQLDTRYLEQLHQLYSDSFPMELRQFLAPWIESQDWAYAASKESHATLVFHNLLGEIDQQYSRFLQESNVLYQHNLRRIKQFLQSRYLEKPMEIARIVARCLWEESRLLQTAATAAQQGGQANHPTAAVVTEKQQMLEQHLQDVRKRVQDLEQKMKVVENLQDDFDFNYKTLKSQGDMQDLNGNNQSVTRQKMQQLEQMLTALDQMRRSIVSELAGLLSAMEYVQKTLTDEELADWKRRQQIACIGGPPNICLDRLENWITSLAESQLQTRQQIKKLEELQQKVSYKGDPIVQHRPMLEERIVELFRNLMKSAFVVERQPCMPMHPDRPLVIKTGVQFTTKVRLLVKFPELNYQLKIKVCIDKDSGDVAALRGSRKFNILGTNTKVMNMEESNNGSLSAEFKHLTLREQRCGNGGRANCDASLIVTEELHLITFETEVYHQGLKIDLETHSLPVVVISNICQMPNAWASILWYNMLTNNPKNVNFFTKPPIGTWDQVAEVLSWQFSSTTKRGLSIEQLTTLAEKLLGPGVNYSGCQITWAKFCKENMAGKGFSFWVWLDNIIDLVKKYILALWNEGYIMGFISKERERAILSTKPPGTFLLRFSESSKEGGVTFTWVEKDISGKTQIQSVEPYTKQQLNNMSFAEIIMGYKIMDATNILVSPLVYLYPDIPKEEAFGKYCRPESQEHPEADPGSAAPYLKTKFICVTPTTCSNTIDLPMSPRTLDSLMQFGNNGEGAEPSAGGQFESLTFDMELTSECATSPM
UniProt Q96SW2: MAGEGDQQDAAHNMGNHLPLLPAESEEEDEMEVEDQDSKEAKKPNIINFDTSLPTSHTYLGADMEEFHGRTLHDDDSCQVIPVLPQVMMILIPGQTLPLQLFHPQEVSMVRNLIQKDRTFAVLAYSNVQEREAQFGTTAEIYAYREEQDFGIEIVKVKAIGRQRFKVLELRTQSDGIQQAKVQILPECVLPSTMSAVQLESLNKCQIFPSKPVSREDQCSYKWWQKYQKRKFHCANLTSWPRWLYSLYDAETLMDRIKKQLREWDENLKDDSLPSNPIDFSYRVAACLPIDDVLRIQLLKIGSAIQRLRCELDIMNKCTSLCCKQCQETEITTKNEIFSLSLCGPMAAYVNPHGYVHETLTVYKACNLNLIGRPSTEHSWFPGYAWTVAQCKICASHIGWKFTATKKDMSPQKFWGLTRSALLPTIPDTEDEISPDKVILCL

Calls of active or inactive are those of the source. The calls are words filed in the database; no cut-off is given here.

With `CC(=O)c1cc2c(o1)C(=O)c1ccccc1C2=O` [NAPABUCASIN], the result in experiment [1] and in experiment [2] was inactive. In addition, the inhibition result in experiment [3] was “Active”. For the same compound, the outcome in experiment [4] was Active.

Values taken from ChEMBL document CHEMBL4706672, “Discovery of a Napabucasin PROTAC as an Effective Degrader of the E3 Ligase ZFP91” (J Med Chem, 2021).
